Laboratory results reported in article PMC9379584 (iScience, 2022).

By UniProt entry, the sequences of proteins in these tests, tags left out.
UniProt P08913, whole entry: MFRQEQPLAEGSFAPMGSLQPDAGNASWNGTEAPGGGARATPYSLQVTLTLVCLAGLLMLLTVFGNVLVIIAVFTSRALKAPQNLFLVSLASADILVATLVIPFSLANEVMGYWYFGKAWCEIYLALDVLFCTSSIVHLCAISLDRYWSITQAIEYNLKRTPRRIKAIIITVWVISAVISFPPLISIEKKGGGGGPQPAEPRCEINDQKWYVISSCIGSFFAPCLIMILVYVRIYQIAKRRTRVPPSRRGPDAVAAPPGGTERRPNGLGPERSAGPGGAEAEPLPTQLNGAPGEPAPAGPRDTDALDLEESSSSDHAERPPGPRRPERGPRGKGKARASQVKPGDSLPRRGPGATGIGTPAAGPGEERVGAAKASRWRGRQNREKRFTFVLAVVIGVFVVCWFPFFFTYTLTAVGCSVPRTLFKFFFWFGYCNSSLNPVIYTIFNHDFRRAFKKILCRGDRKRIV

Molecular target: human α2A-AR (Homo sapiens, UniProt P08913)
Assay: Radioligand competition binding, [3H]-RX821002, HEK-293 membranes

CC(C)C[C@H]1C(=O)N2CCC[C@H]2[C@]2(O)O[C@](NC(=O)[C@@H]3C=C4c5cccc6[nH]c(Br)c(c56)C[C@H]4N(C)C3)(C(C)C)C(=O)N12 [Bromocriptine]
Ki: 199 nM
